Results: US20070196275A1, “Diagnostic Imaging Compositions, Their Methods Of Synthesis And Use” (priority 2001, published 2007)

What was measured:
[1] = tested on: DiFi cells; assay: MTT assay; assay type: cell-based, human; settings: 72 hour treatment
Protocol: DiFi cells were seeded at 5×10^4 cells/well onto 24-well culture plates. […] An optical absorbance of cell lysate was determined by measuring the cell lysate at a wavelength of 595 nm and normalizing the value with the corresponding control of untreated cells.

[2] = tested on: A431 tumors; assay type: in vivo, mice
[3] = set-up: species or system Nude mice; settings: mouse, in vivo

Substance: 1:10 DTPA-PEG-C225: C225 with DTPA attached through PEG linker, antibody to GMBS 1:10, unlabeled
- DiFi cell growth (cell viability) [1]: inhibited the tumor cell growth to the same extent as native C225

Substance: 1:20 DTPA-PEG-C225: C225 with DTPA attached through PEG linker, antibody to GMBS 1:20, unlabeled
- DiFi cell growth (cell viability) [1]: inhibited the tumor cell growth to the same extent as native C225

Substance: 1:30 ^111In-DTPA-PEG-C225: ^111In-labeled DTPA-PEG-C225, molar ratio antibody to GMBS 1:30, about 60% of amino groups substituted
- visualization of tumors in gamma scintigrams ([2]; A431 tumors, 48 hours after injection): clearly seen 48 hours after injection
- Liver ([2]; mouse, in vivo): 25.5 ± 2.0 % IND/g
- Muscle ([2]; mouse, in vivo): 0.69 ± 0.22 % IND/g
- Tumor ([2]; mouse, in vivo): 8.68 ± 1.78 % IND/g
- K10 (elimination rate constant from the central compartment) [3]: 0.09 h⁻¹
- K12 [3]: 0.53 h⁻¹
- K13 [3]: 0.02 h⁻¹
- K21 [3]: 2.27 h⁻¹
- K31 [3]: 0.04 h⁻¹
- A ([3]; iv): 11.3 % ID/ml
- B ([3]; iv): 37.3 % ID/ml
- C ([3]; iv): 7.6 % ID/ml

Substance: 1:40 DTPA-PEG-C225: C225 with DTPA attached through PEG linker, antibody to GMBS 1:40, unlabeled
- DiFi cell growth (cell viability) [1]: inhibited the tumor cell growth to the same extent as native C225
